# Source: patent US20260382689A1, “METHODS OF PREVENTING AND/OR TREATING SIDE EFFECTS ASSOCIATED WITH ANTI-CANCER AGENTS USING NON-NATURALLY OCCURRING MELANOCORTIN ANALOGS WITH ANTI-GDF-15 ANTIBODIES” (published 2026)
# Sequences of proteins named here, by UniProt entry; tags and fusion partners are left off.
# UniProt Q01726, whole entry: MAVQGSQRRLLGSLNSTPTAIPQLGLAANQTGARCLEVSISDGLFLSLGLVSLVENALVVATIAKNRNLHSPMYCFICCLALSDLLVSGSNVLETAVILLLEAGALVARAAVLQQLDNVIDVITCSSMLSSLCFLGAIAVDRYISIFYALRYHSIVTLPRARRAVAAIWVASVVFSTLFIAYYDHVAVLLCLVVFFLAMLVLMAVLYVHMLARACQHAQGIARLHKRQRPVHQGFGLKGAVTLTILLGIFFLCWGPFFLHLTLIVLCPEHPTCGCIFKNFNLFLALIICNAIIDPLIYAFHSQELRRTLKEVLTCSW
# UniProt P41968, whole entry: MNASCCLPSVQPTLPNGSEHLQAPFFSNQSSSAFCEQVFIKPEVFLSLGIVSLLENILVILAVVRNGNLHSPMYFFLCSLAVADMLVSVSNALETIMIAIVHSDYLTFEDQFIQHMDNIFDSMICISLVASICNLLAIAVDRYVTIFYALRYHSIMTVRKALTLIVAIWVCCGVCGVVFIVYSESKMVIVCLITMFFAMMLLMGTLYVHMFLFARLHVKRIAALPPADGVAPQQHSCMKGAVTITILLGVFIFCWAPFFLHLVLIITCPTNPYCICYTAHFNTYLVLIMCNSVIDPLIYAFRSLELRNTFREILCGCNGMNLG
# UniProt P33032, whole entry: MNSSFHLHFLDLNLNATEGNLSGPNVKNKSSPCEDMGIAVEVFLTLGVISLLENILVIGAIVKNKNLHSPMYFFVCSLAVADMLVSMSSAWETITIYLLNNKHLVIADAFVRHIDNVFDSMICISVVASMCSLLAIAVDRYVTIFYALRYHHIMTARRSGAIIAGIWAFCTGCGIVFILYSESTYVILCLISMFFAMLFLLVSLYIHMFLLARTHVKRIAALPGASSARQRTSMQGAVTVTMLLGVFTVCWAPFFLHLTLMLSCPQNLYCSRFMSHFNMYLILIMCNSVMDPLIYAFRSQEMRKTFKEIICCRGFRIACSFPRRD
# UniProt P32245, whole entry: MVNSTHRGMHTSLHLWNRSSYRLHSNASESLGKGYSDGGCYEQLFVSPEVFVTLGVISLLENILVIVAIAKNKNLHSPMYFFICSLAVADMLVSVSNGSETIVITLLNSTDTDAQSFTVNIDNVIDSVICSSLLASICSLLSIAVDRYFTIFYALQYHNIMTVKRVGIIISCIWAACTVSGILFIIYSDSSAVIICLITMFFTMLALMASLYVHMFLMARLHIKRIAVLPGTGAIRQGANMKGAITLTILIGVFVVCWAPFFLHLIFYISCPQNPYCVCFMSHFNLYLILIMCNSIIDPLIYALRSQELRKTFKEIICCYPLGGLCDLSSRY
# Assays:
# [1] = target: melanocortin 1 receptor (MC1R) (Homo sapiens, UniProt Q01726); assay: cAMP accumulation assay (HTRF), agonist and/or antagonist activity at MC1R (Example 1, Table 11); conditions: dose-response; for EC50: cAMP
# [2] = target: human melanocortin 3 receptor (MC3R) (Homo sapiens, UniProt P41968); assay: cAMP accumulation assay (HTRF), antagonist and/or agonist activity at MC3R (Example 1, Table 12, FIGS. 1-4)
# [3] = target: melanocortin 5 receptor (MC5R) (Homo sapiens, UniProt P33032); assay: cAMP accumulation assay (HTRF), agonist and/or antagonist activity at MC5R (Example 1, Table 14); conditions: dose-response against MC5R; for Top (%): top of curve
# [4] = target: human melanocortin 4 receptor (MC4R) (Homo sapiens, UniProt P32245); assay: cAMP accumulation assay (HTRF), antagonist and/or agonist activity at MC4R (Example 1, Table 13, FIGS. 5-8); conditions: for Top (%): top of curve
# [5] = MC3R, antagonist activity, dose-response, cAMP
# [6] = read-out: IC50 (antagonist activity on MC3R), cAMP levels, antagonist
# [7] = Table 13, dose-response against MC4R, cAMP
# [8] = MC3R, antagonist activity, dose-response
EC50 [1] [nM],"IC50 [2, 5] [nM]",EC50 [3] [nM],"IC50 [4, 7] [nM]",Compound,other results
34,3.29,0.04,98,CCCC[C@H](NC(C)=O)C(=O)N[C@H]1CC(=O)NCCCC[C@@H](C(=O)N[C@@H](C(=O)N2CCC[C@@H]2C(N)=O)C(C)C)NC(=O)[C@H](Cc2c[nH]c3ccccc23)NC(=O)[C@H](CCCNC(=N)N)NC(=O)[C@@H](Cc2ccc3ccccc3c2)NC(=O)[C@H](C)NC1=O,"IC50 [2, 6]: < 10000 nM; IC50 ([4]; read-out: IC50 (antagonist activity on MC4R), cAMP levels, antagonist): < 10000 nM"
430,480,42,920,CCCC[C@H](NC(C)=O)C(=O)N[C@H]1CC(=O)NCCC[C@H](C(=O)N[C@@H](C(=O)N2CCC[C@@H]2C(N)=O)C(C)C)NC(=O)[C@H](Cc2c[nH]c3ccccc23)NC(=O)[C@H](CCCNC(=N)N)NC(=O)[C@@H](Cc2ccc3ccccc3c2)NC(=O)[C@@H]2CCCN2C1=O,
0.86,20.4,2.04,24.4,CCCC[C@H](NC(C)=O)C(=O)N[C@H]1CC(=O)NCCCC[C@@H](C(=O)N[C@H](CC(C)C)C(=O)N2CCC[C@@H]2C(N)=O)NC(=O)[C@H](Cc2c[nH]c3ccccc23)NC(=O)[C@H](CCCNC(=N)N)NC(=O)[C@@H](Cc2ccc3ccccc3c2)NC(=O)[C@H](Cc2c[nH]cn2)NC(=O)[C@H](Cc2ccccc2)NC1=O,"Hill Coefficient [1]: 1.07; Top [1]: 99.70%; Hill Coefficient [2, 8]: 1.08; Top [2, 8]: 89.22%; Hill Coefficient [3]: 1.05; Top (%) [3]: 101.67%; Hill Coefficient [4, 7]: 1.46; Top (%) [4, 7]: 94.09%"
110,7.68,0.06,43,CCCC[C@H](NC(C)=O)C(=O)N[C@H]1CC(=O)NCCCC[C@@H](C(=O)N[C@@H](C(=O)N[C@@H](C(=O)N[C@@H](C(=O)N2CCC[C@@H]2C(N)=O)C(C)C)C(C)C)C(C)C)NC(=O)[C@H](Cc2c[nH]c3ccccc23)NC(=O)[C@H](CCCNC(=N)N)NC(=O)[C@@H](Cc2ccc3ccccc3c2)NC(=O)[C@@H]2CCCN2C1=O,
430,290,9.1,> 1000,CCCC[C@H](NC(C)=O)C(=O)N[C@H]1CC(=O)NCCCC[C@@H](C(=O)N[C@@H](C(=O)N2CCC[C@@H]2C(N)=O)C(C)C)NC(=O)[C@H](Cc2c[nH]c3ccccc23)NC(=O)[C@H](CCCN)NC(=O)[C@@H](Cc2ccc3ccccc3c2)NC(=O)[C@@H]2CCCN2C1=O,"IC50 [2, 6]: < 10000 nM"
29,201,10.5,54.9,CCCC[C@H](NC(C)=O)C(=O)N[C@H]1CC(=O)NCCCC[C@@H](C(=O)N[C@@H](C(=O)N2CCC[C@@H]2C(N)=O)C(C)C)NC(=O)[C@H](Cc2c[nH]c3ccccc23)NC(=O)[C@H](CCCNC(=N)N)NC(=O)[C@@H](Cc2ccc3ccccc3c2)NC(=O)[C@H](Cc2c[nH]cn2)NC(=O)[C@@H]2CCCN2C(=O)[C@H](Cc2ccccc2)NC(=O)[C@H](Cc2ccccc2)NC1=O,"Hill Coefficient [1]: 2.04; Top [1]: 99.10%; Hill Coefficient [2, 8]: 1.33; Top [2, 8]: 92.55%; Hill Coefficient [3]: 1.52; Top (%) [3]: 100.67%; Hill Coefficient [4, 7]: 1.49; Top (%) [4, 7]: 81.82%"
> 1000,580,85,> 1000,CCCC[C@H](NC(C)=O)C(=O)N[C@H]1CC(=O)NCCCC[C@@H](C(=O)N[C@@H](C(=O)N2CCC[C@@H]2C(N)=O)C(C)C)NC(=O)[C@H](Cc2c[nH]c3ccccc23)NC(=O)[C@H](C)NC(=O)[C@@H](Cc2ccc3ccccc3c2)NC(=O)[C@@H]2CCCN2C1=O,"IC50 [2, 6]: < 10000 nM"
16,2.5,8.8,,CCCC[C@H](NC(C)=O)C(=O)N[C@H]1CC(=O)NCCCC[C@@H](C(=O)N[C@@H](C(=O)N2CCC[C@@H]2C(N)=O)C(C)C)NC(=O)[C@H](Cc2ccccc2)NC(=O)[C@H](CCCNC(=N)N)NC(=O)[C@@H](Cc2ccc3ccccc3c2)NC(=O)[C@@H]2CCCN2C1=O,
430,,0.11,,CCCC[C@H](NC(C)=O)C(=O)N[C@H]1CC(=O)NCCCC[C@@H](C(=O)N[C@@H](C(=O)N2CCC[C@@H]2C(N)=O)C(C)C)NC(=O)[C@H](Cc2c[nH]c3ccccc23)NC(=O)[C@H](Cc2c[nH]cn2)NC(=O)[C@@H](Cc2ccc3ccccc3c2)NC(=O)[C@@H]2CCCN2C1=O,
1.3,,0.07,,CCCC[C@H](NC(C)=O)C(=O)N[C@H]1CC(=O)NCCCC[C@@H](C(=O)N[C@@H](CCCCN)C(=O)N2CCC[C@@H]2C(=O)N[C@@H](C(N)=O)C(C)C)NC(=O)[C@H](Cc2c[nH]c3ccccc23)NC(=O)[C@H](CCCNC(=N)N)NC(=O)[C@@H](Cc2ccc3ccccc3c2)NC(=O)[C@@H]2CCCN2C1=O,
73,,0.14,,CCCC[C@H](NC(C)=O)C(=O)N[C@@H](CCCC)C(=O)N[C@@H](CCCC)C(=O)N[C@H]1CC(=O)NCCCC[C@@H](C(=O)N[C@@H](C(=O)N2CCC[C@@H]2C(N)=O)C(C)C)NC(=O)[C@H](Cc2c[nH]c3ccccc23)NC(=O)[C@H](CCCNC(=N)N)NC(=O)[C@@H](Cc2ccc3ccccc3c2)NC(=O)[C@@H]2CCCN2C1=O,
> 1000,> 1000,47,,CCCC[C@H](NC(C)=O)C(=O)N[C@@H]1C(=O)N2CCC[C@H]2C(=O)N[C@H](Cc2ccc3ccccc3c2)C(=O)N[C@@H](CCCNC(=N)N)C(=O)N[C@@H](Cc2c[nH]c3ccccc23)C(=O)N[C@@H](C(=O)N[C@@H](C(=O)N2CCC[C@@H]2C(N)=O)C(C)C)CSSC1(C)C,
780,,590,,CCCC[C@H](NC(C)=O)C(=O)N[C@H]1CC(=O)NCCCC[C@@H](C(=O)N[C@@H](C(=O)N2CCC[C@@H]2C(N)=O)C(C)C)NC(=O)[C@H](Cc2ccc(O)cc2)NC(=O)[C@H](CCCNC(=N)N)NC(=O)[C@@H](Cc2ccc3ccccc3c2)NC(=O)[C@@H]2CCCN2C1=O,
3.3,,0.11,,CCCC[C@H](NC(C)=O)C(=O)N[C@H]1CCC(=O)NCCC[C@@H](C(=O)N[C@@H](C(=O)N2CCC[C@@H]2C(N)=O)C(C)C)NC(=O)[C@H](Cc2c[nH]c3ccccc23)NC(=O)[C@H](CCCNC(=N)N)NC(=O)[C@@H](Cc2ccc3ccccc3c2)NC(=O)[C@@H]2CCCN2C1=O,
> 1000,> 1000,> 1000,,CCCC[C@H](NC(C)=O)C(=O)N[C@H]1CC(=O)NCCCC[C@@H](C(=O)N[C@@H](C(=O)N2CCC[C@@H]2C(N)=O)C(C)C)NC(=O)[C@H](Cc2c[nH]c3ccccc23)NC(=O)[C@H](CCCNC(=N)N)NC(=O)[C@@H](Cc2ccc3ccccc3c2)NC(=O)CNC(=O)CNC1=O,
12,,11,,CC(=O)N[C@H](C(=O)N[C@H]1CC(=O)NCCCC[C@@H](C(=O)N[C@@H](C(=O)N2CCC[C@@H]2C(N)=O)C(C)C)NC(=O)[C@H](Cc2c[nH]c3ccccc23)NC(=O)[C@H](CCCNC(=N)N)NC(=O)[C@@H](Cc2ccc3ccccc3c2)NC(=O)[C@@H]2CCCN2C1=O)C(C)(C)C,
130,,0.21,,CCCC[C@H](NC(C)=O)C(=O)N[C@H]1CC(=O)NCCCC[C@@H](C(=O)N2CCC[C@@H]2C(=O)N[C@@H](C(=O)N2CCC[C@@H]2C(N)=O)C(C)C)NC(=O)[C@H](Cc2c[nH]c3ccccc23)NC(=O)[C@H](CCCNC(=N)N)NC(=O)[C@@H](Cc2ccc3ccccc3c2)NC(=O)[C@@H]2CCCN2C1=O,
10,,0.79,,CCCC[C@H](NC(C)=O)C(=O)N[C@H]1CC(=O)NCCCC[C@@H](C(=O)N[C@@H](C(=O)N[C@@H](CC(N)=O)C(N)=O)C(C)C)NC(=O)[C@H](Cc2c[nH]c3ccccc23)NC(=O)[C@H](CCCNC(=N)N)NC(=O)[C@@H](Cc2ccc3ccccc3c2)NC(=O)[C@@H]2CCCN2C1=O,
140,,10,,CCCC[C@H](NC(C)=O)C(=O)N[C@H]1CC(=O)NCCCC[C@@H](C(=O)N[C@@H](C(=O)N2CCC[C@@H]2C(N)=O)C(C)C)NC(=O)[C@H](Cc2c[nH]c3ccccc23)NC(=O)[C@H](CCCCN)NC(=O)[C@@H](Cc2ccc3ccccc3c2)NC(=O)[C@@H]2CCCN2C1=O,
1.43,,2.97,,CCCC[C@H](NC(C)=O)C(=O)N[C@H]1CC(=O)NCCCC[C@@H](C(=O)N[C@@H](C(=O)N2CCC[C@@H]2C(N)=O)C(C)(C)C)NC(=O)[C@H](Cc2c[nH]c3ccccc23)NC(=O)[C@H](CCCNC(=N)N)NC(=O)[C@@H](Cc2ccc3ccccc3c2)NC(=O)[C@H](Cc2c[nH]cn2)NC(=O)[C@H](Cc2ccccc2)NC1=O,Hill Coefficient [1]: 1.33; Top [1]: 100.99%; Hill Coefficient [3]: 1.13; Top (%) [3]: 99.79%
110,,26,,CCCC[C@H](NC(C)=O)C(=O)N[C@H]1CSSC[C@H](C(=O)N[C@@H](C(=O)N2CCC[C@@H]2C(N)=O)C(C)C)NC(=O)[C@H](Cc2c[nH]c3ccccc23)NC(=O)[C@H](CCCNC(=N)N)NC(=O)[C@@H](Cc2ccc3ccccc3c2)NC(=O)[C@@H]2CCCN2C1=O,
510,,11,,CCCC[C@H](NC(C)=O)C(=O)N[C@H]1CCC(=O)NCCC[C@H](C(=O)N[C@@H](C(=O)N2CCC[C@@H]2C(N)=O)C(C)C)NC(=O)[C@H](Cc2c[nH]c3ccccc23)NC(=O)[C@H](CCCNC(=N)N)NC(=O)[C@@H](Cc2ccc3ccccc3c2)NC(=O)[C@@H]2CCCN2C1=O,

# Where two headings read alike, the source gives them in different places.
